According to US20100087406A1, “INDUCTION OF INNATE IMMUNITY BY VITAMIN D3 AND ITS ANALOGS” (CEDARS-SINAI MEDICAL CENTER, priority 2004, published 2010):

Test system: CAMP
Assay: Induction of CAMP mRNA expression in U937 cells (QRT-PCR, RT-PCR, Northern blot)
Type: cell-based, human
Conditions: U937, initial screen, 24 h, QRT-PCR and Northern blot

Substance: IL-2: cytokine
- induction of CAMP expression: only 1,25(OH)2D3 induced CAMP expression significantly
